# Article PMC7773179, “Development and application of high-throughput screens for the discovery of compounds that disrupt ErbB4 signaling: Candidate cancer therapeutics” (PLoS ONE, 2020)
# System: BaF3/EGFR+ErbB4 cells
# Assay: ErbB4-dependent (NRG1β-induced, IL3-independent) proliferation of BaF3/EGFR+ErbB4 cells, semi-automated MTT assay
# Format: cell-based, Mouse
# Experimental: This proliferation is dependent upon exogenous ErbB4 expression.
# As noted earlier, the BaF3/EGFR+ErbB4 cells are IL3 dependent and this dependency can be rescued by stimulation of ErbB4 coupling to cell proliferation. Therefore, the specificity of each of the 19 candidate ErbB4 inhibitors was tested by assaying inhibition of ErbB4-dependent and IL3-dependent cellular proliferation in parallel.
smiles,measurement,value
"COc1cc2ncnc(Nc3ccc(F)c(Cl)c3)c2cc1OCCCN1CCOCC1 [Gefitinib, gefitinib, reference compound]",NRG1β Emax ± SE in the presence of gefitinib,0.35 ± 0.05 AU
